Values quoted from earlier work, collected in publication PMC12019583 (Journal of Neurochemistry, 2025).

Tested on: SERT
Set-up: method as in Plenge et al. [2007]
Details: ref Plenge et al. [2007]; cited from earlier work

Fc1ccc([C@@H]2CCNC[C@H]2COc2ccc3c(c2)OCO3)cc1 [Paroxetine, paroxetine]
off-rate: ~ 0.002 s^−1
